Permeability data for macrocyclic peptides

Data: CycPeptMPDB; original report Townsend et al. 2020, doi:10.26434/chemrxiv.13335941.v1.

PAMPA is the parallel artificial membrane permeability assay, which has no cells and reads passive diffusion. Values are log10 P with P in cm/s, so -5 is more permeable than -7.

CC(C)C[C@@H]1NC(=O)[C@H]2CCCN2C(=O)CN(Cc2ccccc2)C(=O)[C@H](CC(C)C)N(C)C(=O)[C@@H](C)NC(=O)[C@H]2CCCN2C(=O)[C@H](Cc2ccccc2)NC1=O is reported with PAMPA -6.77 (log10 cm/s).
CC(C)C[C@@H]1NC(=O)[C@@H]2CCCN2C(=O)[C@H](CC(C)C)NC(=O)[C@@H](CC(C)C)N(C)C(=O)[C@H](C)N(C)C(=O)[C@H](Cc2ccccc2)NC1=O is reported with PAMPA -5.76 (log10 cm/s).
CC(C)C[C@H]1C(=O)N(Cc2ccccc2)CC(=O)N2CCC[C@H]2C(=O)N(Cc2ccccc2)CC(=O)N[C@@H](Cc2ccccc2)C(=O)N2CCC[C@H]2C(=O)N(C)[C@H](C)C(=O)N1C is reported with PAMPA -5.91 (log10 cm/s).
CC(C)C[C@@H]1NC(=O)[C@H](C)N(C)C(=O)[C@@H]2CCCN2C(=O)[C@H](Cc2ccccc2)NC(=O)[C@@H](CC(C)C)N(C)C(=O)[C@@H]2CCCN2C(=O)[C@@H](CC(C)C)NC1=O is reported with PAMPA -5.56 (log10 cm/s).
CC(C)C[C@@H]1NC(=O)[C@@H](C)N(C)C(=O)[C@H](Cc2ccccc2)NC(=O)[C@H](CC(C)C)N(C)C(=O)[C@@H]2CCCN2C(=O)[C@@H](CC(C)C)NC1=O is reported with PAMPA -5.02 (log10 cm/s).
CCCN1CC(=O)N[C@@H](CC(C)C)C(=O)N(C)[C@H](CC(C)C)C(=O)N2CCC[C@@H]2C(=O)N(C)[C@@H](CC(C)C)C(=O)N[C@@H](Cc2ccccc2)C(=O)N2CCC[C@H]2C1=O is reported with PAMPA -5.73 (log10 cm/s).
CC(C)C[C@@H]1NC(=O)[C@@H](CC(C)C)NC(=O)[C@H](C)N(C)C(=O)[C@H]2CCCN2C(=O)[C@H](Cc2ccccc2)NC(=O)[C@@H](CC(C)C)N(C)C(=O)[C@@H]2CCCN2C1=O is reported with PAMPA -5.67 (log10 cm/s).
CC(C)C[C@@H]1NC(=O)[C@H]2CCCN2C(=O)[C@H](CC(C)C)NC(=O)CN(Cc2ccccc2)C(=O)[C@H](C)NC(=O)[C@H](Cc2ccccc2)NC1=O is reported with PAMPA -6.04 (log10 cm/s).
CC(C)C[C@@H]1NC(=O)[C@H](C)NC(=O)[C@H](Cc2ccccc2)NC(=O)[C@H](CC(C)C)NC(=O)[C@H]2CCCN2C(=O)[C@H](CC(C)C)NC1=O is reported with PAMPA -6.58 (log10 cm/s).
CCCN1CC(=O)N[C@H](CC(C)C)C(=O)N(Cc2ccccc2)CC(=O)N2CCC[C@@H]2C(=O)N[C@H](CC(C)C)C(=O)N[C@@H](Cc2ccccc2)C(=O)N2CCC[C@H]2C1=O is reported with PAMPA -5.88 (log10 cm/s).
CC(C)C[C@@H]1NC(=O)[C@H]2CCCN2C(=O)[C@@H](CC(C)C)N(C)C(=O)[C@H](CC(C)C)NC(=O)C[C@H](Cc2ccccc2)NC(=O)[C@H]2CCCN2C(=O)[C@H](Cc2ccccc2)NC1=O is reported with PAMPA -6.00 (log10 cm/s).
CCCN1CC(=O)N[C@@H](CC(C)C)C(=O)N(C)[C@@H](CC(C)C)C(=O)N2CCC[C@H]2C(=O)N[C@@H](CC(C)C)C(=O)N[C@@H](Cc2ccccc2)C(=O)N2CCC[C@H]2C1=O is reported with PAMPA -5.77 (log10 cm/s).
CC(C)C[C@@H]1NC(=O)[C@H]2CCCN2C(=O)[C@@H](CC(C)C)NC(=O)[C@H](CC(C)C)N(C)C(=O)[C@@H](C)NC(=O)[C@H](Cc2ccccc2)NC1=O is reported with PAMPA -6.61 (log10 cm/s).
CC(C)C[C@@H]1NC(=O)[C@@H]2CCCN2C(=O)[C@H](CC(C)C)NC(=O)[C@H](CC(C)C)N(C)C(=O)[C@@H](C)N(C)C(=O)[C@H](Cc2ccccc2)NC1=O is reported with PAMPA -5.79 (log10 cm/s).
CC(C)C[C@@H]1C(=O)N[C@@H](Cc2ccccc2)CC(=O)N2CCC[C@H]2C(=O)N(C)[C@@H](CC(C)C)C(=O)N[C@@H](Cc2ccccc2)C(=O)N2CCC[C@@H]2C(=O)N[C@@H](Cc2ccccc2)CC(=O)N1C is reported with PAMPA -5.45 (log10 cm/s).
CC(C)C[C@H]1NC(=O)[C@@H]2CCCN2C(=O)CN(Cc2ccccc2)C(=O)[C@@H](CC(C)C)NC(=O)[C@@H](C)NC(=O)[C@H]2CCCN2C(=O)[C@H](Cc2ccccc2)NC1=O is reported with PAMPA -7.35 (log10 cm/s).
CC(C)C[C@@H]1NC(=O)C[C@H](Cc2ccccc2)NC(=O)[C@H](Cc2ccccc2)NC(=O)[C@H](CC(C)C)N(C)C(=O)[C@H]2CCCN2C(=O)[C@@H](CC(C)C)N(C)C1=O is reported with PAMPA -5.31 (log10 cm/s).
CC(C)C[C@@H]1NC(=O)C[C@H](Cc2ccccc2)NC(=O)[C@H]2CCCN2C(=O)[C@H](Cc2ccccc2)NC(=O)[C@@H](CC(C)C)NC(=O)[C@@H]2CCCN2C(=O)[C@@H](CC(C)C)N(C)C1=O is reported with PAMPA -5.52 (log10 cm/s).
CC(C)C[C@@H]1NC(=O)[C@H](C)N(C)C(=O)[C@H]2CCCN2C(=O)[C@H](Cc2ccccc2)NC(=O)[C@H](CC(C)C)N(C)C(=O)[C@H]2CCCN2C(=O)[C@@H](CC(C)C)NC1=O is reported with PAMPA -5.35 (log10 cm/s).
CC(C)C[C@@H]1NC(=O)[C@@H](C)N(C)C(=O)[C@@H]2CCCN2C(=O)[C@H](Cc2ccccc2)NC(=O)CN(Cc2ccccc2)C(=O)[C@H]2CCCN2C(=O)[C@@H](CC(C)C)N(C)C1=O is reported with PAMPA -6.05 (log10 cm/s).

Extract of 2 entries:

CC(C)C[C@@H]1NC(=O)[C@@H](CC(C)C)NC(=O)[C@H](C)N(C)C(=O)[C@H]2CCCN2C(=O)[C@H](Cc2ccccc2)NC(=O)[C@@H](CC(C)C)N(C)C(=O)[C@@H]2CCCN2C1=O has PAMPA -5.67 (log10 cm/s).
CC(C)C[C@@H]1NC(=O)[C@@H](C)N(C)C(=O)[C@@H]2CCCN2C(=O)[C@H](Cc2ccccc2)NC(=O)CN(Cc2ccccc2)C(=O)[C@H]2CCCN2C(=O)[C@@H](CC(C)C)N(C)C1=O has PAMPA -6.05 (log10 cm/s).

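Conditions beyond the assay type are not listed; see the original paper. Other peptides of the study may be missing here. Entries at the database's floor value (log10 P of -10) are not listed.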